Measured values taken from patent publication US10562957B2, “Albumin-purification method comprising a nanofiltration step, solution, and composition for therapeutic use containing the same” (LABORATOIRE FRANCAIS DU FRACTIONNEMENT ET DES …, priority 2004, dated 2020).

What was measured:
[1] = Equilibrium dialysis: binding of [^14C]warfarine by albumin compositions; conditions: for Ka [^14C]warfarine: binding constant (Ka) of warfarine on the albumin, equilibrium dialysis, phosphate buffer pH 7.4; for Percentage of albumin-bound [^14C] warfarine: albumin 2.5 g/L, pH 7.4, average of 5 tests
Procedure: (§1) For that purpose, three solutions A4 (Example 3) are provided, one of which has been nanofiltered under the conditions of the invention. These solutions are then processed into pharmaceutical formulations in a 0.07 M phosphate buffer, pH 7.4, to give albumin compositions, A′4, A″4 and A″′4, with concentrations of 2.5 g/L. The albumin compositions A″4 and A″′4, not nanofiltered, are pasteurised in the presence of sodium caprylate, respectively. A sample of 1 mL is taken from each of the compositions, and a volume of between 10 μL and 1 000 μL of a parent alcohol-based solution of [^14C]warfarine and [^14C]diazepam at 0.1 M respectively, two active ingredients of the respective class of anticoagulants and neurotropes, is added to the albumin compositions considered in order to provide variable concentrations in these active ingredients. The mixture is then homogenised.
(§2) The study of the properties of albumin in binding the two above active ingredients is based on the methodology of equilibrium dialysis, known to those skilled in the art, and whose principle is summarised below. A dialysis device including a cell with two compartments separated by a suitable dialysis membrane is obtained. One volume V of an albumin/active ingredient mixture is introduced into compartment 1 and the same volume V of dialysis buffer (phosphate buffer, as defined above) is introduced into compartment 2. Once the equilibrium is reached, after a few hours, compartment 1 contains albumin-bound and unbound active ingredient and compartment 2 contains unbound active ingredient. Some samples are taken from each compartment 1 and 2 and radioactivity is measured by liquid scintillation. These measurements determine the respective concentrations in albumin-bound and unbound active ingredients.
(§3) Table 10 gives the percentages of albumin-bound [^14C]diazepam obtained with compositions A′4, A″4 and A″′4 respectively, in which increasing volumes of active ingredient have been added. […] The results are shown as the average value of 5 tests.

[2] = Equilibrium dialysis: binding of [^14C]diazepam by albumin compositions; conditions: for Ka [^14C]diazepam: binding constant (Ka) of diazepam on the albumin, equilibrium dialysis, phosphate buffer pH 7.4; for Percentage of albumin-bound [^14C] diazepam: albumin 2.5 g/L, pH 7.4, average of 5 tests
Procedure: as §1, §2, §3

[3] = test system: bacteriophage virus Phi-X 174; test: Viral reduction by nanofiltration of albumin solutions infected with bacteriophage; design: species or system bacteriophage Phi-X 174; conditions: albumin 20 g/L
Source text: Once the filtration of a predetermined volume of albumin is achieved, the filter inlet is closed. For rinsing, one volume of purified water for injection (PWI) is introduced into the repressurised vessel 12, and the filter is flushed out. The filtrate is collected until a perceptible reduction in optical density which is monitored on the recording device 16. The downstream circuit is then flushed out to collect the finished filtrate. Samples are taken from the filtrate and submitted to subsequent analytic tests such as polymer assays, virus titrations, etc. The duration of filtration of one volume of albumin solution required to provide a fixed protein load is also measured, and the filtration yield is determined as the quotient between the albumin amount contained in the filtrate and in the retentate.
To show the influence of variations in the working conditions of the nanofiltration (filter surface area, pressure and temperature) and of the physicochemical parameters of the albumin solutions (pH, buffer composition), on the rate of viral reduction, viruses are introduced into different solutions of albumin A (20 g/L) which are submitted to nanofiltration tests. The tests are carried out by infecting the albumin solutions with bacteriophage virus Phi-X 174, suspensions of which are obtained in accordance with AFNOR Standard NFT 72-181 (December 1989). This virus is a good marker for the 15-nm filter as its size is between 25 and 30 nm, which corresponds to the non-enveloped viruses that are transmissible to humans, such as parvovirus B19, the inactivation by pasteurisation of which is not satisfactory.

Substance: A′4: albumin composition 2.5 g/L in 0.07 M phosphate buffer pH 7.4 from solution A4 nanofiltered without stabiliser
- Ka [^14C]warfarine [1]: 215 mM⁻¹
- Percentage of albumin-bound [^14C] warfarine ([1]; total [^14C]warfarine 1.99 ± 0.19 μm): 93.32 ± 0.49%
- Percentage of albumin-bound [^14C] warfarine ([1]; total [^14C]warfarine 10.12 ± 0.71 μm): 91.75 ± 0.75%
- Percentage of albumin-bound [^14C] warfarine ([1]; total [^14C]warfarine 34.29 ± 2.28 μm): 83.43 ± 1.11%
- Percentage of albumin-bound [^14C] warfarine ([1]; total [^14C]warfarine 62.73 ± 3.55 μm): 71.74 ± 1.20%
- Percentage of albumin-bound [^14C] warfarine ([1]; total [^14C]warfarine 103.66 ± 4.24 μm): 55.34 ± 2.94%
- Percentage of albumin-bound [^14C] warfarine ([1]; total [^14C]warfarine 123.43 ± 8.07 μm): 47.83 ± 2.03%
- Ka [^14C]diazepam [2]: 187 mM⁻¹
- Percentage of albumin-bound [^14C] diazepam ([2]; total [^14C]diazepam 1.68 ± 0.06 μm): 80.9 ± 1.46%
- Percentage of albumin-bound [^14C] diazepam ([2]; total [^14C]diazepam 4.17 ± 0.28 μm): 82.34 ± 1.92%
- Percentage of albumin-bound [^14C] diazepam ([2]; total [^14C]diazepam 8.04 ± 0.24 μm): 78.08 ± 1.83%
- Percentage of albumin-bound [^14C] diazepam ([2]; total [^14C]diazepam 40.09 ± 1.28 μm): 57.18 ± 2.14%
- Percentage of albumin-bound [^14C] diazepam ([2]; total [^14C]diazepam 65.27 ± 3.46 μm): 48.58 ± 1.49%
- Percentage of albumin-bound [^14C] diazepam ([2]; total [^14C]diazepam 115.02 ± 4.83 μm): 36.38 ± 1.69%

Substance: A″4: albumin composition 2.5 g/L, phosphate buffer pH 7.4, not nanofiltered, pasteurised in the presence of sodium caprylate
- Ka [^14C]warfarine [1]: 135 mM⁻¹
- Percentage of albumin-bound [^14C] warfarine ([1]; total [^14C]warfarine 1.71 ± 0.19 μm): 88.18 ± 0.82%
- Percentage of albumin-bound [^14C] warfarine ([1]; total [^14C]warfarine 8.35 ± 1.13 μm): 87.61 ± 0.84%
- Percentage of albumin-bound [^14C] warfarine ([1]; total [^14C]warfarine 30.97 ± 2.98 μm): 81.14 ± 2.07%
- Percentage of albumin-bound [^14C] warfarine ([1]; total [^14C]warfarine 54.40 ± 10.02 μm): 73.24 ± 3.46%
- Percentage of albumin-bound [^14C] warfarine ([1]; total [^14C]warfarine 102.08 ± 14.70 μm): 57.02 ± 4.36%
- Percentage of albumin-bound [^14C] warfarine ([1]; total [^14C]warfarine 119.90 ± 6.96 μm): 53.11 ± 3.46%
- Ka [^14C]diazepam [2]: 4.2 mM⁻¹
- Percentage of albumin-bound [^14C] diazepam ([2]; total [^14C]diazepam 1.09 ± 0.23 μm): 34.46 ± 2.04%
- Percentage of albumin-bound [^14C] diazepam ([2]; total [^14C]diazepam 5.52 ± 0.53 μm): 32.26 ± 1.34%
- Percentage of albumin-bound [^14C] diazepam ([2]; total [^14C]diazepam 21.95 ± 0.42 μm): 31.00 ± 0.93%
- Percentage of albumin-bound [^14C] diazepam ([2]; total [^14C]diazepam 42.84 ± 5.67 μm): 31.85 ± 2.99%
- Percentage of albumin-bound [^14C] diazepam ([2]; total [^14C]diazepam 85.00 ± 13.6 μm): 30.12 ± 2.00%
- Percentage of albumin-bound [^14C] diazepam ([2]; total [^14C]diazepam 109.79 ± 10.96 μm): 29.12 ± 2.67%

Substance: A″′4: second albumin A batch, composition 2.5 g/L, not nanofiltered, pasteurised in the presence of sodium caprylate
- Ka [^14C]warfarine [1]: 118 mM⁻¹
- Percentage of albumin-bound [^14C] warfarine ([1]; total [^14C]warfarine 1.69 ± 0.08 μm): 88.58 ± 0.32%
- Percentage of albumin-bound [^14C] warfarine ([1]; total [^14C]warfarine 8.33 ± 0.30 μm): 87.66 ± 0.28%
- Percentage of albumin-bound [^14C] warfarine ([1]; total [^14C]warfarine 31.65 ± 0.72 μm): 80.39 ± 0.89%
- Percentage of albumin-bound [^14C] warfarine ([1]; total [^14C]warfarine 57.17 ± 3.81 μm): 71.01 ± 1.68%
- Percentage of albumin-bound [^14C] warfarine ([1]; total [^14C]warfarine 104.64 ± 6.28 μm): 55.04 ± 0.68%
- Percentage of albumin-bound [^14C] warfarine ([1]; total [^14C]warfarine 127.98 ± 4.83 μm): 49.77 ± 2.66%
- Ka [^14C]diazepam [2]: 3.35 mM⁻¹
- Percentage of albumin-bound [^14C] diazepam ([2]; total [^14C]diazepam 1.23 ± 0.09 μm): 38.47 ± 1.88%
- Percentage of albumin-bound [^14C] diazepam ([2]; total [^14C]diazepam 2.91 ± 0.21 μm): 40.93 ± 4.83%
- Percentage of albumin-bound [^14C] diazepam ([2]; total [^14C]diazepam 11.55 ± 0.19 μm): 37.85 ± 1.25%
- Percentage of albumin-bound [^14C] diazepam ([2]; total [^14C]diazepam 44.98 ± 3.14 μm): 34.96 ± 0.6%
- Percentage of albumin-bound [^14C] diazepam ([2]; total [^14C]diazepam 86.09 ± 5.01 μm): 33.04 ± 1.17%
- Percentage of albumin-bound [^14C] diazepam ([2]; total [^14C]diazepam 107.97 ± 9.43 μm): 30.74 ± 1.78%

Substance: albumin A: albumin from fractionation of human plasma according to Kistler et al.; reference solution 20 g/L, pH 7, 9 g/L NaCl
- Viral reduction ([3]; 15-nm filter 0.001 m^2, 0.2 bar, 35 ° C., 280 mosm, NaCl: 0.15 M, pH 7.2): >5.0 Δ log
- Viral reduction ([3]; 15-nm filter 0.001 m^2, 0.5 bar, 26 ° C., 280 mosm, NaCl: 0.15 M, pH 7.2): >5.5 Δ log
- Viral reduction ([3]; 15-nm filter 0.001 m^2, 0.5 bar, 35 ° C., 280 mosm, NaCl: 0.15 M, Tween ®80: 0.06%, pH 7.2): >6.5 Δ log
- Viral reduction ([3]; 15-nm filter 0.001 m^2, 0.5 bar, 35 ° C., 280 mosm, NaCl: 0.15 M, pH 4.1): >6.0 Δ log
- Viral reduction ([3]; 15-nm filter 0.001 m^2, 0.5 bar, 35 ° C., 280 mosm, NaCl: 0.15 M, pH 7.2): 6.5 Δ log
- Viral reduction ([3]; 15-nm filter 0.001 m^2, 0.5 bar, 35 ° C., 335 mosm, Na2SO4: 0.15 M, pH 7.2): 3.7 Δ log
- Viral reduction ([3]; 15-nm filter 0.001 m^2, 0.5 bar, 35 ° C., 555 mosm, NaCl: 0.30 M, pH 7.2): 4.2 Δ log
- Viral reduction ([3]; 15-nm filter 0.001 m^2, 0.5 bar, 35 ° C., 610 mosm, NaCl: 0.15 M, Sucrose: 100 g/L, pH 7.2): >6.3 Δ log
- Viral reduction ([3]; 15-nm filter 0.001 m^2, 1.0 bar, 35 ° C., 280 mosm, NaCl: 0.15 M, pH 7.2): 4.9 Δ log
- Viral reduction ([3]; 15-nm filter 0.01 m^2, 0.5 bar, 35 ° C., 280 mosm, NaCl: 0.15 M, pH 7.2): 5.9 Δ log
